From ChEMBL document CHEMBL3112502, “The insulin secretory action of novel polycyclic guanidines: discovery through open innovation phenotypic screening, and exploration of structure-activity relationships” (Bioorg Med Chem Lett, 2014)

Tested on: INS-1E
Assay: Stimulation of insulin secretion in rat INS-1E cells after 1 hr by alphaLISA assay in presence of 0.1 mM glucose
Type: functional, cell-based

Compound: N=C1N[C@H](c2ccccc2)C[C@H]2CC[C@H](CCc3ccccc3)N12
- Activity: inactive

Activity calls are given as the source filed them. The calls are words filed in the database; no cut-off is given here.
